Data taken from publication PMC12102759 (Protein Science : A Publication of the Protein Society, 2025).

By UniProt entry, the sequences of proteins in these tests, tags left out. Residues count along the entry.
UniProt Q9Y490, 309-401: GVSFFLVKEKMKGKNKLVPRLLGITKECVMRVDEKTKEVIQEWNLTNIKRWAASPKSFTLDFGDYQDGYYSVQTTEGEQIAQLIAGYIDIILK

biological target: TLN1 PTB (Homo sapiens, UniProt Q9Y490); assay type: binding

Substance | DMS-derived PSSM value, averaged over the two overlapping peptides
TDERSWVYSPLHYS(averaged) S14Y (TDERSWVYSPLHYY) | 0.02795
TDERSWVYSPLHYS(averaged) T1A (ADERSWVYSPLHYS) | 0.05626
TDERSWVYSPLHYS(averaged) T1D (DDERSWVYSPLHYS) | 0.03384
TDERSWVYSPLHYS(averaged) T1E (EDERSWVYSPLHYS) | 0.1596
TDERSWVYSPLHYS(averaged) T1F (FDERSWVYSPLHYS) | 0.02588
TDERSWVYSPLHYS(averaged) T1G (GDERSWVYSPLHYS) | 0.04566
TDERSWVYSPLHYS(averaged) T1H (HDERSWVYSPLHYS) | 0.0316
TDERSWVYSPLHYS(averaged) T1I (IDERSWVYSPLHYS) | 0.01704
TDERSWVYSPLHYS(averaged) T1K (KDERSWVYSPLHYS) | 0.01554
TDERSWVYSPLHYS(averaged) T1L (LDERSWVYSPLHYS) | 0.1268
TDERSWVYSPLHYS(averaged) T1M (MDERSWVYSPLHYS) | 0.006995
TDERSWVYSPLHYS(averaged) T1N (NDERSWVYSPLHYS) | 0.01133
TDERSWVYSPLHYS(averaged) T1P (PDERSWVYSPLHYS) | 0.03344
TDERSWVYSPLHYS(averaged) T1Q (QDERSWVYSPLHYS) | 0.05185
TDERSWVYSPLHYS(averaged) T1R (RDERSWVYSPLHYS) | 0.05322
TDERSWVYSPLHYS(averaged) T1S (SDERSWVYSPLHYS) | 0.05373
TDERSWVYSPLHYS(averaged) T1T | 0.1158
TDERSWVYSPLHYS(averaged) T1V (VDERSWVYSPLHYS) | 0.01914
TDERSWVYSPLHYS(averaged) T1W (WDERSWVYSPLHYS) | 0.05997
TDERSWVYSPLHYS(averaged) T1Y (YDERSWVYSPLHYS) | 0.0823
TDERSWVYSPLHYS(averaged) V7A (TDERSWAYSPLHYS) | 0.1872

Substance | DMS-derived PSSM value, averaged over the two overlapping peptides
TDERSWVYSPLHYS(averaged) V7D (TDERSWDYSPLHYS) | 0.01732
TDERSWVYSPLHYS(averaged) V7E (TDERSWEYSPLHYS) | 0.03883
TDERSWVYSPLHYS(averaged) V7F (TDERSWFYSPLHYS) | 0.007422
TDERSWVYSPLHYS(averaged) V7G (TDERSWGYSPLHYS) | 0.008985
TDERSWVYSPLHYS(averaged) V7H (TDERSWHYSPLHYS) | 0.01065
TDERSWVYSPLHYS(averaged) V7I (TDERSWIYSPLHYS) | 0.004511
TDERSWVYSPLHYS(averaged) V7K (TDERSWKYSPLHYS) | 0.04004
TDERSWVYSPLHYS(averaged) V7L (TDERSWLYSPLHYS) | 0.03993
TDERSWVYSPLHYS(averaged) V7M (TDERSWMYSPLHYS) | 0.02199
TDERSWVYSPLHYS(averaged) V7N (TDERSWNYSPLHYS) | 0.3735
TDERSWVYSPLHYS(averaged) V7P (TDERSWPYSPLHYS) | 0.0001309
TDERSWVYSPLHYS(averaged) V7Q (TDERSWQYSPLHYS) | 0.01435
TDERSWVYSPLHYS(averaged) V7R (TDERSWRYSPLHYS) | 0.03163
TDERSWVYSPLHYS(averaged) V7S (TDERSWSYSPLHYS) | 0.01626
TDERSWVYSPLHYS(averaged) V7T (TDERSWTYSPLHYS) | 0.05985
TDERSWVYSPLHYS(averaged) V7V | 0.04353
TDERSWVYSPLHYS(averaged) V7W (TDERSWWYSPLHYS) | 0.04074
TDERSWVYSPLHYS(averaged) V7Y (TDERSWYYSPLHYS) | 0.04319
TDERSWVYSPLHYS(averaged) W6A (TDERSAVYSPLHYS) | 0.02329
TDERSWVYSPLHYS(averaged) W6D (TDERSDVYSPLHYS) | 0
TDERSWVYSPLHYS(averaged) W6E (TDERSEVYSPLHYS) | 0.002222

Substance | DMS-derived PSSM value, averaged over the two overlapping peptides
TDERSWVYSPLHYS(averaged) W6F (TDERSFVYSPLHYS) | 0.1658
TDERSWVYSPLHYS(averaged) W6G (TDERSGVYSPLHYS) | 0.001993
TDERSWVYSPLHYS(averaged) W6H (TDERSHVYSPLHYS) | 0
TDERSWVYSPLHYS(averaged) W6I (TDERSIVYSPLHYS) | 0.007259
TDERSWVYSPLHYS(averaged) W6K (TDERSKVYSPLHYS) | 0.003135
TDERSWVYSPLHYS(averaged) W6L (TDERSLVYSPLHYS) | 0.001423
TDERSWVYSPLHYS(averaged) W6M (TDERSMVYSPLHYS) | 0
TDERSWVYSPLHYS(averaged) W6N (TDERSNVYSPLHYS) | 0.006381
TDERSWVYSPLHYS(averaged) W6P (TDERSPVYSPLHYS) | 0.03116
TDERSWVYSPLHYS(averaged) W6Q (TDERSQVYSPLHYS) | 0.03535
TDERSWVYSPLHYS(averaged) W6R (TDERSRVYSPLHYS) | 0.008236
TDERSWVYSPLHYS(averaged) W6S (TDERSSVYSPLHYS) | 0
TDERSWVYSPLHYS(averaged) W6T (TDERSTVYSPLHYS) | 0.002222
TDERSWVYSPLHYS(averaged) W6V (TDERSVVYSPLHYS) | 0.008677
TDERSWVYSPLHYS(averaged) W6W | 0.7004
TDERSWVYSPLHYS(averaged) W6Y (TDERSYVYSPLHYS) | 0.002419
TDERSWVYSPLHYS(averaged) Y8A (TDERSWVASPLHYS) | 0.02105
TDERSWVYSPLHYS(averaged) Y8D (TDERSWVDSPLHYS) | 0.03253
TDERSWVYSPLHYS(averaged) Y8E (TDERSWVESPLHYS) | 0.01034
TDERSWVYSPLHYS(averaged) Y8F (TDERSWVFSPLHYS) | 0.05465
TDERSWVYSPLHYS(averaged) Y8G (TDERSWVGSPLHYS) | 0.005376

Substance | DMS-derived PSSM value, averaged over the two overlapping peptides
TDERSWVYSPLHYS(averaged) Y8H (TDERSWVHSPLHYS) | 0.06096
TDERSWVYSPLHYS(averaged) Y8I (TDERSWVISPLHYS) | 0.0304
TDERSWVYSPLHYS(averaged) Y8K (TDERSWVKSPLHYS) | 0.05157
TDERSWVYSPLHYS(averaged) Y8L (TDERSWVLSPLHYS) | 0.07793
TDERSWVYSPLHYS(averaged) Y8M (TDERSWVMSPLHYS) | 0.03131
TDERSWVYSPLHYS(averaged) Y8N (TDERSWVNSPLHYS) | 0.04735
TDERSWVYSPLHYS(averaged) Y8P (TDERSWVPSPLHYS) | 0.02017
TDERSWVYSPLHYS(averaged) Y8Q (TDERSWVQSPLHYS) | 0.03811
TDERSWVYSPLHYS(averaged) Y8R (TDERSWVRSPLHYS) | 0.1139
TDERSWVYSPLHYS(averaged) Y8S (TDERSWVSSPLHYS) | 0.1506
TDERSWVYSPLHYS(averaged) Y8T (TDERSWVTSPLHYS) | 0.1088
TDERSWVYSPLHYS(averaged) Y8V (TDERSWVVSPLHYS) | 0.08002
TDERSWVYSPLHYS(averaged) Y8W (TDERSWVWSPLHYS) | 0.02327
TDERSWVYSPLHYS(averaged) Y8Y | 0.04173
TDERSWVYSPLHYS(averaged) Y13A (TDERSWVYSPLHAS) | 0.04569
TDERSWVYSPLHYS(averaged) Y13D (TDERSWVYSPLHDS) | 0.1958
TDERSWVYSPLHYS(averaged) Y13E (TDERSWVYSPLHES) | 0.02565
TDERSWVYSPLHYS(averaged) Y13F (TDERSWVYSPLHFS) | 0.1157
TDERSWVYSPLHYS(averaged) Y13G (TDERSWVYSPLHGS) | 0.03896
TDERSWVYSPLHYS(averaged) Y13H (TDERSWVYSPLHHS) | 0.03552
TDERSWVYSPLHYS(averaged) Y13I (TDERSWVYSPLHIS) | 0.08264
